# Apparent affinities of Ab-14 variants for a coronavirus HR2 peptide

Binding partner: SARS-CoV-2 spike HR2 peptide, sequence PDVDLGDISGINAS.

Ab-14 is the parent antibody, in scFv form: VH, then a 15-residue (Gly4Ser)3 linker, then VL. The heavy chain is unchanged in all variants.
VH: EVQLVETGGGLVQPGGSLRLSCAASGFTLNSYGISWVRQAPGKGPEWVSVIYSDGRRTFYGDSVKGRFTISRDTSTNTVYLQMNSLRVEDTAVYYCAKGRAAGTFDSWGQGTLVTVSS
VL: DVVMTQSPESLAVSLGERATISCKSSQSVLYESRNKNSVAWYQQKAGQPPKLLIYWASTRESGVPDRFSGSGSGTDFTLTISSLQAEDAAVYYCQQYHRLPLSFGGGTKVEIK

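The parent was found by panning a naive human phage display library on the peptide. Library AAYL50 holds single substitutions and randomly drawn double and triple substitutions in the CDRs. In AlphaSeq, yeast of one mating type display the scFv and yeast of the other type display the target. Pairs that bind mate more often; barcode pairs of the diploids are counted by sequencing. A regression on co-assayed BCL2-family reference pairs converts the normalised counts of each replicate to an apparent Kd. The assay was run in three technical replicates.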

Each variant is given by its three light chain CDRs, as the data file delimits them; those of the parent are KSSQSVLYESRNKNSVA, WASTRES, QQYHRLPLS. Scale: log10 of Kd in nM, estimated from mating counts; low values are strong binders. Averages over replicates are reported, and they cover detected replicates only. "nd" means that the variant was in the library but no mating with the target was seen in any replicate; the authors take this as a sign of poor binding, and no number exists. Parent in this assay: reference entry 0.65, copy in this library 1.68.

The variant KSSQSVLYESRNKHSVA / SASTRES / QSYHRLPLS showed 0.19 (3 of 3 replicates; controls 1 of 9).
The variant KSSQSVLYESRNMNSVA / WASTRES / QQVHRLPLS showed 0.25 (3 of 3 replicates; controls 1 of 9).
The variant QSSWSYLYESRNKNSVA / WASTRES / QQYHRLPLS showed 2.28 (3 of 3 replicates; controls 0 of 9).
The variant RSSQSVLYESRNKNSVR / WASTRES / QQYHREPLS showed nd (0 of 3 replicates; controls 2 of 9).
The variant KSSQSVLYESRNKNSVA / DASTRES / QQYNRLPLS showed -0.26 (3 of 3 replicates; controls 2 of 9).
The variant KSSQSVLYPSRNKNSVA / TASTRNS / QQYHRLPLS showed 1.19 (3 of 3 replicates; controls 0 of 9).
The variant KSSQSELYESRNKNSVA / GASTRES / QQYHRPPLS showed 4.67 (2 of 3 replicates; controls 4 of 9).
The variant KSSQSVIYEQRNKNSVA / WASTRES / DQYHRLPLS showed 4.92 (2 of 3 replicates; controls 4 of 9).
The variant KSSQSQLYESRNKNSVA / WTSTRES / QQYHRLPLS showed 0.82 (3 of 3 replicates; controls 3 of 9).
The variant KSSQSVAYESRNKNSVA / WASTRES / VQYHRLPGS showed 2.86 (3 of 3 replicates; controls 4 of 9).
The variant KLSQSVLYEWRNKNSVA / WASTRES / QQYHRLPLS showed 0.60 (3 of 3 replicates; controls 1 of 9).
The variant KSSQSVLYESENKNSTA / WASTRES / QQYHRLPLS showed 5.26 (2 of 3 replicates; controls 4 of 9).
The variant KSSQSVLYESRPKNSVA / WASTRPS / QHYHRLPLS showed 3.37 (3 of 3 replicates; controls 4 of 9).
The variant KSSQSVLYESRNKNSRA / WASTRES / AKYHRLPLS showed 5.01 (3 of 3 replicates; controls 4 of 9).
The variant KSSQSVLYEFNNKNSVA / WASTRES / QQYHHLPLS showed 5.61 (1 of 3 replicates; controls 3 of 9).
The variant KSSQSVLYESRNKGSVA / WASMRES / QQYHRLQLS showed 1.67 (3 of 3 replicates; controls 0 of 9).
The variant KSSQSVLYESRNKNSVA / WASTRES / QEYHRLPDT showed 3.62 (2 of 3 replicates; controls 0 of 9).
The variant KSSQSVLYDSRNKNSVA / WASTKES / QQYHRYPLS showed 2.82 (3 of 3 replicates; controls 0 of 9).
The variant KSWQSVLYESHNTNSVA / WASTRES / QQYHRLPLS showed 1.96 (3 of 3 replicates; controls 0 of 9).
The variant KSSQSVLYGSRNKNTVA / WISTRES / QQYHRLPLS showed nd (0 of 3 replicates; controls 0 of 9).
The variant KSVQSVLYEGRWKNSVA / WASTRES / QQYHRLPLS showed 2.01 (3 of 3 replicates; controls 1 of 9).
The variant KSSQSVLYEESNKNSVA / DASTRES / QQYHRLPLS showed -0.08 (3 of 3 replicates; controls 6 of 9).
The variant KSSQSVLYESRNKNSVQ / WASTREG / QQYHRLPLE showed nd (0 of 3 replicates; controls 0 of 9).
The variant KSSQSVLYESRSKNSVA / WASTRYS / NQYHRLPLS showed 3.51 (1 of 3 replicates; controls 0 of 9).
The variant KSSQSVLYECRNKESVA / WASTRES / QFYHRLPLS showed 4.25 (1 of 3 replicates; controls 1 of 9).
The variant KSSQSALYESRNKNSVA / WASTREM / QQYGRLPLS showed 0.68 (3 of 3 replicates; controls 4 of 9).
The variant KSSQSVLYESRNKNSVA / QASTREH / QQYHRLPLS showed 0.33 (3 of 3 replicates; controls 1 of 9).
The variant KSSQSVLYESRWKNSYA / WWSTRES / QQYHRLPLS showed nd (0 of 3 replicates; controls 0 of 9).
The variant KSSQHVLYESRNKNSVA / WISTRES / QYYHRLPLS showed nd (0 of 3 replicates; controls 0 of 9).
The variant KSSQSDLYESRNKNSVA / WAETRES / QQYIRLPLS showed 3.55 (3 of 3 replicates; controls 4 of 9).
The variant KKSQSVLYESRNKNSAA / WASTRES / QQYHRLQLS showed nd (0 of 3 replicates; controls 1 of 9).
The variant KSSQSVMYESRMKNSVA / WASTRES / QQYHRWPLS showed 2.32 (3 of 3 replicates; controls 1 of 9).
The variant KSSWSVLYESRNKNSVA / WASTRES / QQYHRLTLS showed nd (0 of 3 replicates; controls 0 of 9).
The variant KSSQSVLYESRHKNSVA / WASFRES / QQYHRLPLE showed 1.96 (2 of 3 replicates; controls 0 of 9).
The variant KSSQSVLYWSRNKASVA / WASTRES / QQYHRLQLS showed nd (0 of 3 replicates; controls 0 of 9).
The variant KASQSVLYESRNKNSVA / WASTYES / QQYQRLPLS showed 5.99 (1 of 3 replicates; controls 0 of 9).
The variant KSSSSVLYASRNKNSVA / WASTRES / AQYHRLPLS showed 2.04 (3 of 3 replicates; controls 3 of 9).
The variant KSSFSVLYESRNKNSVA / WASTREW / QQYHRLPLM showed 1.84 (3 of 3 replicates; controls 0 of 9).
The variant KSSQSGLYESQNKNSVA / WASTRES / QQYTRLPLS showed 0.79 (3 of 3 replicates; controls 2 of 9).
The variant TSSQSVLYESRNKNSVA / WACTVES / QQYHRLPLS showed 5.13 (1 of 3 replicates; controls 1 of 9).
The variant KSSQVVLYESRNINSVA / WASTRES / QQYHRLHLS showed nd (0 of 3 replicates; controls 0 of 9).
The variant KSSQSVLPESRNCNSVA / WASTRTS / QQYHRLPLS showed nd (0 of 3 replicates; controls 0 of 9).
The variant KSSQSVLYESRNKNSVA / ARSTRIS / QQYHRLPLS showed 0.49 (3 of 3 replicates; controls 2 of 9).

The first 5 variants above that were never detected:

CDR-L1	CDR-L2	CDR-L3	mean log10 Kd (nM)	detected	control signals
RSSQSVLYESRNKNSVR	WASTRES	QQYHREPLS	nd	0 of 3	2 of 9
KSSQSVLYGSRNKNTVA	WISTRES	QQYHRLPLS	nd	0 of 3	0 of 9
KSSQSVLYESRNKNSVQ	WASTREG	QQYHRLPLE	nd	0 of 3	0 of 9
KSSQSVLYESRWKNSYA	WWSTRES	QQYHRLPLS	nd	0 of 3	0 of 9
KSSQHVLYESRNKNSVA	WISTRES	QYYHRLPLS	nd	0 of 3	0 of 9

Nonspecific signal, from three strains lacking the peptide, appeared in 18% of pairings of library AAYL50, centred on 4.19 (5% of these signals below 2.99); values are not corrected for it. Also given: how often the same scFv was detected with the empty control strains.

From the AlphaSeq antibody data of Engelhart et al. 2022 (doi:10.1038/s41597-022-01779-4), copy in the FLAb collection.